ChEMBL document CHEMBL4417631, “Oral peptide inhibitors of interleukin-23 receptor and their use to treat inflammatory bowel diseases” (2017)

Key:
[1] = Half life in simulated intestinal fluid at 20 uM by LC-MS/MS analysis; type: ADME
[2] = Half life in simulated gastric fluid at 20 uM by LC-MS/MS analysis; type: ADME
Rattus norvegicus [3] = test: Anti-colitis activity in Sprague-Dawley rat model of DSS-induced colitis assessed as reduction in colon macroscopic scores at 20 mg/kg, po dosed 3 times per day; type: functional, organism-based
Rattus norvegicus [4] = test: Anti-colitis activity in Sprague-Dawley rat model of DSS-induced colitis assessed as improvement in stool consistency scores level at 20 mg/kg, po dosed 3 times per day; type: functional, organism-based
[5] = Half life in DTT at 50 uM up up to 120 mins by reverse phase HPLC and UV detection based assay; type: physicochemical
PBMC = test: Inhibition of IL12-stimulated IFNgamma production in PHA-activated human PBMC at 0.0001 to 100 uM by ELISA; type: functional, cell-based
Rattus norvegicus [6] = test: Anti-colitis activity in Sprague-Dawley rat model of DSS-induced colitis assessed as change in body weight at 20 mg/kg, po dosed 3 times per day (-6.39 +/- 1.11%); type: functional
Rattus norvegicus [7] = test: Anti-colitis activity in Sprague-Dawley rat model of DSS-induced colitis assessed as improvement in hematocrit scores level at 20 mg/kg, po dosed 3 times per day; type: functional, organism-based
Rattus norvegicus [8] = test: Anti-colitis activity in Sprague-Dawley rat model of DSS-induced colitis assessed as change in body weight at 30 mg/kg, ip dosed 3 times per day (-6.39 +/- 1.11%); type: functional

SMILES	half-life at 20 µM [1] [h]	half-life at 20 µM [2] [h]	further results
CC(=O)N[C@H]1CCSC[C@@H](C(=O)N[C@@H](Cc2ccc(OCCN)cc2)C(=O)N[C@@H](Cc2ccc3ccccc3c2)C(=O)N[C@@](C)(CCCCN)C(=O)N[C@@H](CCC(=O)O)C(=O)N[C@@H](CC(N)=O)C(=O)N[C@@H](CC(N)=O)C(N)=O)NC(=O)[C@H](CCC(N)=O)NC(=O)[C@H](Cc2c[nH]c3ccccc23)NC(=O)[C@H]([C@@H](C)O)NC(=O)[C@H](CCC(N)=O)NC1=O	3 to 6	3 to 6	
CC(=O)N[C@H]1CCSC[C@@H](C(=O)N[C@@H](Cc2ccc(OCCN)cc2)C(=O)N[C@@H](Cc2ccc3ccccc3c2)C(=O)NC2(C(=O)N[C@@H](CCC(=O)O)C(=O)N[C@@H](CC(N)=O)C(=O)N[C@@H](CC(N)=O)C(N)=O)CC2)NC(=O)[C@H](CCC(N)=O)NC(=O)[C@H](Cc2c[nH]c3ccccc23)NC(=O)[C@H]([C@@H](C)O)NC(=O)[C@H](CCC(N)=O)NC1=O	1 to 6	> 6	
COc1ccc(C[C@H](NC(=O)[C@@H]2CSCC[C@H](NC(C)=O)C(=O)N[C@@H](CCC(N)=O)C(=O)N[C@@H]([C@@H](C)O)C(=O)N[C@@H](Cc3c[nH]c4ccccc34)C(=O)N[C@@H](CCC(N)=O)C(=O)N2)C(=O)N[C@@H](Cc2ccc3ccccc3c2)C(=O)N[C@@](C)(CCCCN)C(=O)N[C@@H](CCC(=O)O)C(=O)N[C@@H](CC(N)=O)C(=O)NCC(N)=O)cc1	2 to 3	< 1	Activity (Rattus norvegicus [3]): Active; Activity (Rattus norvegicus [4]): Active; half-life at 50 µM [5]: > 2 h; inhibition (PBMC): inactive; Activity (Rattus norvegicus [6]): 3.18%; Activity (Rattus norvegicus [7]): Active; Activity (Rattus norvegicus [8]): -0.5%
CC(=O)N[C@H](Cc1ccccc1)C(=O)N[C@H]1CCSC[C@@H](C(=O)N[C@@H](Cc2ccc(OCCN)cc2)C(=O)N[C@@H](Cc2ccc3ccccc3c2)C(=O)N[C@@](C)(CCCCN)C(=O)N[C@@H](CCC(=O)O)C(=O)N[C@@H](CC(N)=O)C(=O)N[C@@H](CC(N)=O)C(N)=O)NC(=O)[C@H](CCC(N)=O)NC(=O)[C@H](Cc2c[nH]c3ccccc23)NC(=O)[C@H]([C@@H](C)O)NC(=O)[C@H](CCC(N)=O)NC1=O	3 to 6	2 to 3	
CC(=O)N[C@H](CCC(N)=O)C(=O)N[C@H]1CCSC[C@@H](C(=O)N[C@@H](Cc2ccc(OCCN)cc2)C(=O)N[C@@H](Cc2ccc3ccccc3c2)C(=O)N[C@@](C)(CCCCN)C(=O)N[C@@H](CCC(=O)O)C(=O)N[C@@H](CC(N)=O)C(=O)N[C@@H](CC(N)=O)C(N)=O)NC(=O)[C@H](CCC(N)=O)NC(=O)[C@H](Cc2c[nH]c3ccccc23)NC(=O)[C@H]([C@@H](C)O)NC(=O)[C@H](CCC(N)=O)NC1=O	> 6	2 to 3	
CC(=O)N[C@H](CCCNC(=N)N)C(=O)N[C@H]1CCSC[C@@H](C(=O)N[C@@H](Cc2ccc(OCCN)cc2)C(=O)N[C@@H](Cc2ccc3ccccc3c2)C(=O)N[C@@](C)(CCCCN)C(=O)N[C@@H](CCC(=O)O)C(=O)N[C@@H](CC(N)=O)C(=O)N[C@@H](CC(N)=O)C(N)=O)NC(=O)[C@H](CCC(N)=O)NC(=O)[C@H](Cc2c[nH]c3ccccc23)NC(=O)[C@H]([C@@H](C)O)NC(=O)[C@H](CCC(N)=O)NC1=O	> 6	3 to 6	
CC(=O)N[C@H](C(=O)N[C@H]1CCSC[C@@H](C(=O)N[C@@H](Cc2ccc(OCCN)cc2)C(=O)N[C@@H](Cc2ccc3ccccc3c2)C(=O)N[C@@](C)(CCCCN)C(=O)N[C@@H](CCC(=O)O)C(=O)N[C@@H](CC(N)=O)C(=O)N[C@@H](CC(N)=O)C(N)=O)NC(=O)[C@H](CCC(N)=O)NC(=O)[C@H](Cc2c[nH]c3ccccc23)NC(=O)[C@H]([C@@H](C)O)NC(=O)[C@H](CCC(N)=O)NC1=O)[C@@H](C)O	> 6	2 to 6	

Calls of active or inactive are those of the source. The rule behind the calls is not given here.
